These are literature values, as cited in patent US20230330042A1 (published 2023).

Chains of the proteins cited; added tags and fusions are not shown.
UniProt P23975, whole entry: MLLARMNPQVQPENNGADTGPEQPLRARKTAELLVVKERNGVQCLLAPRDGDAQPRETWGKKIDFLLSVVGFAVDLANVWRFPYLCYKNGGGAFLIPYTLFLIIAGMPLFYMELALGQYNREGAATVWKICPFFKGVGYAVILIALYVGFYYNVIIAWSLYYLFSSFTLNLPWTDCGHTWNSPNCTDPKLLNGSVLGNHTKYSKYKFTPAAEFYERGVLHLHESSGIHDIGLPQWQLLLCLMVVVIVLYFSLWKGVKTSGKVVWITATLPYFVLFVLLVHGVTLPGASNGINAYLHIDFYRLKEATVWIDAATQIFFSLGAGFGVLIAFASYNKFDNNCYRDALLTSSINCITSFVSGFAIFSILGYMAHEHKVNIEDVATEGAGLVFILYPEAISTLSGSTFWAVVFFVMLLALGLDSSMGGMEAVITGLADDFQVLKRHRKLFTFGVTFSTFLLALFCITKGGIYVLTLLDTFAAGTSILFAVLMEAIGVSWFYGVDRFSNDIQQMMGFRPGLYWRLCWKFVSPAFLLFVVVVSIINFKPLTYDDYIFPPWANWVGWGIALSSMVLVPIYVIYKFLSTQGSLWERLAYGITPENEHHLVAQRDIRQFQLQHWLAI

Molecules are shown by their SMILES.

This data set concerns the target Noradrenaline reuptake (Homo sapiens, UniProt P23975). The following applies: read-out: Ki Noradrenaline; Mean value (n = 2-3); NA: no activity at 10 μmol/L.

Regarding `CN(C)CCCN1c2ccccc2CCc2ccccc21` [Imipramine], the Ki (commonly a dissociation constant, usually derived from enzyme kinetics or from competition with a known ligand) is 6.61 nM.
